Measured values taken from patent US20100311648A1.

Amino acid sequences for entries named in this document (tags omitted). A change or cut given only in a name is not applied to a line headed by its entry.
UniProt Q01727: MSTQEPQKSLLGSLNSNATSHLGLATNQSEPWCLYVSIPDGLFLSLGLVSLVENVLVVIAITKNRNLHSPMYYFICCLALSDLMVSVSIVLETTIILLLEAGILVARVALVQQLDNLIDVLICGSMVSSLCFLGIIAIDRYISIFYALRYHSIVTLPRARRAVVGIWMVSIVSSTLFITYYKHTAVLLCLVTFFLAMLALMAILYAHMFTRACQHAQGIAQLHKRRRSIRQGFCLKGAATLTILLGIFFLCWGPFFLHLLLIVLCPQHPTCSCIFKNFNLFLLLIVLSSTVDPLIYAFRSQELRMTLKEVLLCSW
UniProt P32245, whole entry: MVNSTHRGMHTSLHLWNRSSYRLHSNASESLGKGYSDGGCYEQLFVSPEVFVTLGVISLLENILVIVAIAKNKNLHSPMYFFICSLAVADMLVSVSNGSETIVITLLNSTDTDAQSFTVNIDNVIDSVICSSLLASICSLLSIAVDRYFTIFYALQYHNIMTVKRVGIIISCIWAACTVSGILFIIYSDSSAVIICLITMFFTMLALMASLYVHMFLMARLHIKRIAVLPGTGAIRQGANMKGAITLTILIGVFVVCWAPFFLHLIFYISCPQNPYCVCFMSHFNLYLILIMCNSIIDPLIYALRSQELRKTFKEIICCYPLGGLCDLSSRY

Experiments:
[1] = molecular target: melanocortin-1 receptor (mouse (B-16 melanoma cells); in some instances human (hMC1-R)) (UniProt Q01727); experiment: [I125]-NDP-α-MSH competition, MC1-R membranes
[2] = molecular target: human melanocortin-4 receptor (human) (UniProt P32245); experiment: [I125]-NDP-α-MSH competition, hMC4-R HEK-293 membranes

Ki [1]	Ki [2]	Substance
35 nM		Ac-Arg-cyclo(Glu-Dab-D-Phe(2-CN)-Arg-Trp-Orn)-NH2 (peptide)
	35 nM	Ac-Arg-cyclo(Glu-Dab-D-Phe(3,4-diOMe)-Arg-Trp-Orn)-NH2 (peptide)
28 nM		Ac-Arg-cyclo(Glu-Dap-D-Phe(2-Cl)-Arg-Trp-Orn)-NH2 (peptide)
